Reference: US9156822B2, “Functionally selective ligands of dopamine D2 receptors” (The University of North Carolina at Chapel Hill, priority 2010, dated 2015)

Chains of the proteins cited; added tags and fusions are not shown.
UniProt P14416, whole entry, looked up: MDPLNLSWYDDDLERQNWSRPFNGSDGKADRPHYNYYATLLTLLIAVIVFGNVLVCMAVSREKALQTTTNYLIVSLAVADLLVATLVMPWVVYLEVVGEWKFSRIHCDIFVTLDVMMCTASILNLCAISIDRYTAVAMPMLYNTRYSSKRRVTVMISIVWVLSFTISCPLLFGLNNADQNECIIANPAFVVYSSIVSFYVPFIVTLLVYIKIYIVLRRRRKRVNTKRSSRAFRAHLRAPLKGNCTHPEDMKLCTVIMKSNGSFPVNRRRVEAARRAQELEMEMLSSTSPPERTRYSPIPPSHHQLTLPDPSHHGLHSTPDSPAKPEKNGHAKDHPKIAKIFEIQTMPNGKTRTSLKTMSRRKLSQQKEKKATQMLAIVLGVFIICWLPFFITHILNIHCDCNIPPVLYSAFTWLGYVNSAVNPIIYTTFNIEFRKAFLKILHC

Molecular target: D2 receptors (Homo sapiens (Human), UniProt P14416)
Test: D2 β-arrestin recruitment (Tango) assay
Assay type: cell-based
Settings: normalized to quinpirole (100%)

With O=c1[nH]c2ccc(OCCCCN3CCN(c4cccc(Cl)c4Cl)CC3)cc2[nH]1 [Compound 35] the “β-arrestin (Tango) Emax” value was 65%.
